Yeast mating assay 1: variants of the scFv Ab-14

Source: Engelhart et al. 2022 (doi:10.1038/s41597-022-01779-4), MIT Lincoln Laboratory and A-Alpha Bio; data file from the FLAb repository.

Target: peptide PDVDLGDISGINAS, taken from heptad repeat 2 (HR2) of SARS-CoV-2 spike.

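Phage display of a naive human antibody library on the peptide gave the parent. Library AAYL50 holds single substitutions and randomly drawn double and triple substitutions in the CDRs. The scFvs were displayed on barcoded MATa yeast, the peptide on MATalpha yeast. The frequency of each diploid, read from paired DNA barcodes, reflects how well the two displayed proteins bind. Read counts were normalised to the haploid input and turned into Kd by a linear fit to BCL2-family pairs of known affinity, for each replicate. The assay was run in three technical replicates.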

Ab-14 is the parent antibody, in scFv form: VH, then three GGGGS repeats, then VL. The heavy chain is unchanged in all variants.
VH: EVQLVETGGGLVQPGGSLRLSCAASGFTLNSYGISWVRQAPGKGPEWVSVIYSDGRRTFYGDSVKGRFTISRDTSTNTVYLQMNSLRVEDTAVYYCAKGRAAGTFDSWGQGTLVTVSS
VL: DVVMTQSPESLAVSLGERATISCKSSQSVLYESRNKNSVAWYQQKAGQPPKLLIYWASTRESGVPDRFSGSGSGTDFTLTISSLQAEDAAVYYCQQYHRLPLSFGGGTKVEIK

Changes read parent residue, position, new residue, counted from the first residue of the VL shown. Scale: log10 of Kd in nM, estimated from mating counts; low values are strong binders. A pair that was not seen in that replicate is written "n.d."; this usually means weak binding, but a binder can also be missed. Three control strains display no target. For library AAYL50, 18% of the pairings with them gave a signal, with a median of 4.19 and one signal in twenty below 2.99, so weak values seen in few replicates may be background. Also given: how often the same scFv was detected with the empty control strains, with their mean in brackets.

| changes | log10 Kd (nM) by replicate | empty controls |
|---|---|---|
| S38A+Q96V+L100N | n.d. 4.39 n.d. | 7/9 (4.58) |
| L30Q+R99Q+P101D | n.d. n.d. n.d. | 0/9 |
| S26K+Q27L+Q96H | 2.66 2.41 3.17 | 1/9 (3.82) |
| K36I+T59M+P101L | n.d. n.d. n.d. | 1/9 (4.41) |
| H98K+P101D+L102V | n.d. n.d. n.d. | 4/9 (3.54) |
| S58G+E61H+L102T | n.d. 4.59 n.d. | 2/9 (3.98) |
| Q27R+R60H+Y97T | n.d. 2.90 3.95 | 1/9 (3.82) |
| Y31M+R60K+P101E | 1.38 1.53 1.45 | 2/9 (4.11) |
| K24N+V29E+N37I | 1.42 1.69 1.44 | 2/9 (3.78) |
| S26M+W56M+Q95T | 4.12 5.43 6.16 | 4/9 (3.93) |
| Q27E+A40K+L102F | 5.15 n.d. n.d. | 0/9 |
| V29C+Y31D+S38M | 1.02 1.27 1.09 | 3/9 (4.20) |
| S28I+W56G+L102W | 0.72 0.88 0.79 | 1/9 (3.81) |
| R34K+A57C | 3.57 3.10 3.19 | 1/9 (3.64) |
| S58A+Q96T+L100Q | n.d. n.d. n.d. | 0/9 |
| L30S+N35K+R60L | 2.15 1.80 2.08 | 0/9 |
| Y31L+A40C+S62C | 3.86 3.81 4.27 | 2/9 (4.29) |
| S28P+S33Q+Y97K | 1.65 1.12 1.36 | 0/9 |
| S38L+S62I+L102V | n.d. n.d. n.d. | 1/9 (2.79) |
| K24F+H98I+R99M | n.d. 3.26 n.d. | 1/9 (3.60) |
| N37V+L100R | 2.00 1.99 1.90 | 3/9 (4.80) |
| S26H+L30M+E32K | 2.25 2.64 2.50 | 2/9 (3.94) |
| A57K+Q96W+Y97I | n.d. n.d. n.d. | 0/9 |
| S62M+L100T+L102W | n.d. n.d. n.d. | 0/9 |
| S26G+S28K+P101T | 1.71 1.70 1.68 | 2/9 (4.93) |
| K24W+S25E+S62T | n.d. n.d. 2.76 | 0/9 |
| S33V+R99L | 2.82 2.81 3.38 | 6/9 (4.42) |
| T59V+Q96H | 1.23 1.50 1.58 | 4/9 (4.72) |
| E32G+N37T+A40I | n.d. n.d. 3.64 | 4/9 (4.60) |
| V39L+S62N+L100V | 1.79 1.89 2.27 | 1/9 (3.38) |
| E32N+K36S+S38L | 4.04 n.d. n.d. | 3/9 (4.55) |
| S25T+S33K+Q95A | 2.12 2.03 2.42 | 8/9 (4.35) |
| L30V+Y31E+W56T | 1.19 1.24 1.15 | 0/9 |
| Q27M+N37L+P101W | n.d. n.d. 4.19 | 2/9 (4.74) |
| S26R+V29G+Q95K | 0.97 1.23 0.90 | 0/9 |
| R34P+Q96K+R99H | 0.64 0.85 0.87 | 2/9 (4.53) |

The first 3 entries again:

{"changes": "S38A+Q96V+L100N", "log10 Kd (nM) by replicate": "n.d. 4.39 n.d.", "empty controls": "7/9 (4.58)"}
{"changes": "L30Q+R99Q+P101D", "log10 Kd (nM) by replicate": "n.d. n.d. n.d.", "empty controls": "0/9"}
{"changes": "S26K+Q27L+Q96H", "log10 Kd (nM) by replicate": "2.66 2.41 3.17", "empty controls": "1/9 (3.82)"}